High-throughput results deposited in PubChem BioAssay by Broad Institute.
A selection: hits, their analogues and other compounds. The true share with any hit is near 1.3%.
UUG fidelity – yeast start codon fidelity modulation; AID 602363; activity score, % at 18.7 µM; S. cerevisiae UUG-firefly luciferase reporter, luminescence/redox ratio; 0.13% of 350,000 active;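 active means replicate mean at a twofold rise or more, about +100% in these data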;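 further: firefly luciferase made from a UUG start codon reports start codon fidelity; reporter light over untreated wells divided by growth signal over untreated wells; some hits fall short of that in this replicate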
AF4-AF9 inh – blocks AF4 peptide binding to human AF9; P42568; AlphaScreen, biotin-AF4 peptide binding to FLAG-AF9; inhibition, % at 10 µM; actives 0.47% (n = 350,000);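 active = every replicate reaching a set inhibition limit, whatever the replicate mean, cut at about 25% in these data; inconclusive = mean inhibition reaches that limit but some replicates miss it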
S100A4 MyoIIA – S100A4-myosin IIA interaction inhibition | actives 0.14% (n = 360,000) | P26447 | inhibition, % at 10.7 µM | S100A4/TAMRA-MyoIIA peptide fluorescence polarization;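 active = mean inhibition of at least 70% across replicates, with every replicate also reaching that level; inconclusive = mean inhibition reaches 70% but some replicates fall short; inactive = mean inhibition below 70%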
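Material: S100A4 monomer protein / Buffer or medium: 50 mM HEPES pH 7.2, 10 mM CaCl2, 100 mM KCl / Times: 5 min incubation before reading / Benchmarks: neutral control DMSO, positive control TFP / Reagent: labelled myosin peptide probe, 5 nM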
E-sel inducer – E-selectin induction on HUVECs; P16581; HUVEC E-selectin immunofluorescence imaging; normalized: neutral wells 0, TNF-alpha wells 100; activation, % at 7.58 µM; actives 0.37% (n = 260,000); AID 686992;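 active = mean E-selectin-positive cell signal at least 10% of the positive control, reached in at least 60% of replicates, without over 20% cell loss; inconclusive = no rule given, readout overlaps actives, possibly toxicity-flagged; inactive = the rest, including those meeting only one limit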
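Assay system: HUVEC, human umbilical vein endothelial cells / Amount: 3,000 HUVEC/well / Controls: TNF-alpha positive control, DMSO neutral control / Compound dosing: single concentration / Medium: EGM-2 over gelatin coat / Evaluation: percent E-selectin-positive cells / Signal: immunofluorescence imaging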
ARNT TACC3 PPI – disrupts binding between human ARNT and TACC3 | AlphaScreen His-ARNT PAS-B/GST-TACC3 binding, luminescence; TACC3 fragment carries E629A point mutation | inhibition, % at 9.99 µM | actives 0.66% (n = 390,000) | AID 623870;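 active = mean inhibition of replicates at least 50% and at least half of replicates each reaching 50%; inconclusive = half or more replicates reach 50% but mean below 50%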
ERAP1 inh – blocks human ERAP1 aminopeptidase activity | Q9NZ08 | recombinant ERAP1, Leu-AMC fluorescence, 60 min | inhibition, % at 10.7 µM | actives 0.15% (n = 340,000) | AID 652197;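 active = mean replicate inhibition of at least 30%, or all replicates individually reaching that 30% level; inactive = mean below 30% and not every replicate reaching it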
Of the large screens only hits and unclear results are named; the others gave an inactive call; ! = a repeat was not active.

CC(C)NC(=O)N(C)C[C@@H]1Oc2cc(-c3ccncc3)ccc2S(=O)(=O)N([C@H](C)CO)C[C@H]1C	S100A4 MyoIIA 160
C[C@H](CO)N1C[C@H](C)[C@@H](CN(C)CC2CC2)Oc2cc(-c3ccc(F)cc3)ccc2S1(=O)=O	none (no result: E-sel inducer)
C[C@H]1CN([C@@H](C)CO)S(=O)(=O)c2ccc(/C=C/c3ccccc3)cc2O[C@H]1CN(C)CC1CC1	AF4-AF9 inh 29
CC(C)NC(=O)N(C)C[C@@H]1Oc2cc(-c3ccncc3)ccc2S(=O)(=O)N([C@@H](C)CO)C[C@@H]1C	none
COc1ccc(-c2ccc3c(c2)O[C@H](CN(C)Cc2cccnc2)[C@@H](C)CN([C@H](C)CO)S3(=O)=O)cc1	S100A4 MyoIIA 108
C[C@@H]1CN([C@H](C)CO)S(=O)(=O)c2ccc(-c3ccc(F)cc3)cc2O[C@@H]1CN(C)CC1CC1	E-sel inducer 92
CN(C)C(=O)[C@@H]1[C@@H](CO)[C@@H]2Cn3c(ccc(C4=CCCC4)c3=O)[C@H]1N2CC1CCCC1	none (no result: UUG fidelity, ARNT TACC3 PPI, ERAP1 inh)
COCC(=O)N(C)C[C@@H]1Oc2cc(-c3ccc(F)cc3)ccc2S(=O)(=O)N([C@H](C)CO)C[C@@H]1C	none
C[C@@H]1CN([C@@H](C)CO)S(=O)(=O)c2ccc(-c3cccc(C#N)c3)cc2O[C@@H]1CN(C)C(=O)c1ccc(F)cc1	S100A4 MyoIIA 131!
COCC(=O)N(C)C[C@H]1Oc2cc(-c3ccc(F)cc3)ccc2S(=O)(=O)N([C@@H](C)CO)C[C@H]1C	E-sel inducer 125
C[C@@H]1CN([C@@H](C)CO)S(=O)(=O)c2ccc(Br)cc2O[C@@H]1CN(C)Cc1ccncc1	S100A4 MyoIIA 111
Cc1cc2cc(CNC(=O)c3ccc(S(=O)(=O)N4CCCC4)cc3)ccc2n1C	S100A4 MyoIIA 121, E-sel inducer inconclusive
Cc1cc2cc(CNC(=O)c3ccc(S(=O)(=O)N4CCCCC4)cc3)ccc2n1C	E-sel inducer 82
CN1C(=O)c2cc(NC(=O)C3CCOCC3)ccc2OC[C@H]2O[C@@H](CC(=O)NC3CCCC3)CC[C@@H]21	none
C[C@H](CO)N1C[C@H](C)[C@@H](CN(C)C(=O)NC2CCCC2)Oc2ncc(-c3ccccc3)cc2C1=O	none
COc1ccccc1NC(=S)NNC(=O)c1nn(C)cc1Cl	ARNT TACC3 PPI 57 (no result: AF4-AF9 inh, S100A4 MyoIIA, E-sel inducer, ERAP1 inh)
OCC(CCc1c[nH]c2ccccc12)c1c[nH]c2ccccc12 (stereo not drawn)	AF4-AF9 inh 41 (no result: UUG fidelity, ARNT TACC3 PPI)
NC(=O)CCc1c[nH]c2ccccc12	none (no result: AF4-AF9 inh, S100A4 MyoIIA, E-sel inducer, ERAP1 inh)
COc1ccc(S(=O)(=O)Nc2ccc3c(c2)[C@H]2C[C@H](CC(=O)N(C)C)O[C@@H](CO)[C@H]2O3)cc1	none (no result: UUG fidelity)
CCN1CCN(CCCNC(=O)c2cc3c(s2)-c2ccccc2OC3)CC1	ERAP1 inh 54 (no result: E-sel inducer)
CC1CC(C)CN(CCCNC(=O)c2cc3c(s2)-c2ccccc2OC3)C1 (stereo not drawn)	none (no result: E-sel inducer)
CC1CCCC(C)N1CCCNC(=O)c1cc2c(s1)-c1ccccc1OC2 (stereo not drawn)	ERAP1 inh 32 (no result: E-sel inducer)
CC(=O)N(/N=C1\Sc2ccccc2C1=O)c1ccccc1C	ARNT TACC3 PPI 59 (no result: AF4-AF9 inh, S100A4 MyoIIA, E-sel inducer, ERAP1 inh)
CC(=O)N(/N=C1\Sc2ccccc2C1=O)c1ccc(C)cc1C	none (no result: UUG fidelity, AF4-AF9 inh, S100A4 MyoIIA, E-sel inducer, ERAP1 inh)
O=C(O)c1ncn(Cc2ccc(Br)cc2)c1C(=O)O	ARNT TACC3 PPI 46 (no result: UUG fidelity, E-sel inducer)
C[C@@H]1CN([C@@H](C)CO)C(=O)c2c(c3ccccc3n2C)-c2ccccc2CO[C@H]1CN(C)S(=O)(=O)c1ccsc1	none (no result: UUG fidelity)
COc1cccc(C(C[N+](=O)[O-])c2c(C)[nH]n(-c3ccccc3)c2=O)c1 (stereo not drawn)	none (no result: E-sel inducer)
Cc1[nH]n(-c2ccccc2)c(=O)c1C(C[N+](=O)[O-])c1ccc(Br)cc1 (stereo not drawn)	ARNT TACC3 PPI 48 (no result: UUG fidelity, AF4-AF9 inh, S100A4 MyoIIA, E-sel inducer, ERAP1 inh)
COc1ccc2c3c(n(C)c2c1)[C@@H](CO)N(C(=O)c1cccnc1)CC31CN(C)C1	none (no result: UUG fidelity, S100A4 MyoIIA, ARNT TACC3 PPI, ERAP1 inh)
O=C(Nc1nnc(C2=COCCO2)o1)C1CCCCC1	ARNT TACC3 PPI 50
O=C(Nc1nnc(-c2ccncc2)o1)C1CCCCC1	none (no result: UUG fidelity)
Cc1cccc(C(=O)Nc2nnc(C3=COCCO3)o2)c1	ARNT TACC3 PPI 55 (no result: UUG fidelity)
COc1ccc(C(=O)Nc2nnc(C3=COCCO3)o2)cc1OC	ARNT TACC3 PPI 37
CNC[C@H]1OCCCC[C@H](C)Oc2ccc(NS(=O)(=O)c3ccc(C)cc3)cc2C(=O)N([C@H](C)CO)C[C@@H]1C	none (no result: AF4-AF9 inh)
C[C@H]1CCCCO[C@H](CN(C)S(=O)(=O)c2ccc(F)cc2)[C@@H](C)CN([C@@H](C)CO)C(=O)c2cc(NC(=O)Cc3ccccc3)ccc2O1	none (no result: UUG fidelity, AF4-AF9 inh, S100A4 MyoIIA, ERAP1 inh)
CCOC(=O)C1=C(c2ccccc2)NC(N)=NC1c1ccc(OCc2ccc(Cl)cc2)c(OC)c1 (stereo not drawn)	AF4-AF9 inh 27 (no result: UUG fidelity)
O=C(Cc1ccccc1)N1CC(=O)N2[C@H](CO)[C@H](c3ccc(C#CCc4ccccc4)cc3)[C@H]2C1	none (no result: UUG fidelity, ARNT TACC3 PPI)
COc1ccc2c(c1OC)c(=O)n1c3ccc(OC(C)C(=O)NCCN4CCOCC4)cc3c3ccnc2c31 (stereo not drawn)	none (no result: E-sel inducer)
CC(Oc1ccc2c(c1)c1ccnc3c4ccccc4c(=O)n2c13)C(=O)NCCN1CCOCC1 (stereo not drawn)	ARNT TACC3 PPI 48 (no result: AF4-AF9 inh, S100A4 MyoIIA, E-sel inducer, ERAP1 inh)
O=C(O)Cn1cc(C(=O)C(F)(F)F)c2ccccc21	E-sel inducer 49
O=C(C[C@H]1CC[C@H](NC(=O)c2cccnc2)[C@H](CO)O1)NCCN1CCCCC1	none
CSc1ccccc1NC(=O)CN1c2ccccc2CC1C (stereo not drawn)	AF4-AF9 inh 51 (no result: UUG fidelity, E-sel inducer)
O=C(N/N=C/c1c(O)n(Cc2ccco2)c(=O)[nH]c1=O)c1ccccc1	ARNT TACC3 PPI 62
O=C(N/N=C\c1ccccc1OCc1ccccc1)c1ccco1	none (no result: UUG fidelity, E-sel inducer, ARNT TACC3 PPI)
COc1ccc(NC(=O)O[C@H](c2ccc(OC)c(O)c2)[C@@H](CCO)OC)cc1	none (no result: E-sel inducer)
CCN(CC)Cc1c(O)ccc2cc(-c3nc4ccccc4n3C)c(=O)oc12	ERAP1 inh 91 (no result: E-sel inducer)
CO[C@H]1CN(C)C(=O)c2cc(NS(=O)(=O)c3cn(C)cn3)ccc2OC[C@@H](C)N(CC2CC2)C[C@@H]1C	none (no result: UUG fidelity)
CCN(CC)CCCNC(=O)c1cc(-c2ccccc2)c(N2CCCCC2)s1	AF4-AF9 inh 29
O=C(NCCc1ccccc1)c1cc(-c2ccccc2)c(N2CCOCC2)s1	none (no result: ARNT TACC3 PPI)
O=C(CCN1CCOCC1)NNC(=S)NC(=O)c1ccccc1	ARNT TACC3 PPI 48 (no result: E-sel inducer)
CN(C)c1ccc(C(CNC(=O)COc2ccc(Cl)cc2)N2CCCC2)cc1 (stereo not drawn)	AF4-AF9 inh 26 (no result: E-sel inducer)
COc1ccc(C(CNC(=O)COc2cc(C)ccc2Cl)N2CCCCC2)cc1 (stereo not drawn)	none (no result: UUG fidelity, E-sel inducer)
